Among the data in PubChem BioAssay AID2783 (National Center for Advancing Translational Sciences (NCATS), 2010) are activity change, negative = inhibition values, retold here.

By UniProt entry, the sequences of proteins in these tests, tags left out.
UniProt Q03164, whole entry, looked up: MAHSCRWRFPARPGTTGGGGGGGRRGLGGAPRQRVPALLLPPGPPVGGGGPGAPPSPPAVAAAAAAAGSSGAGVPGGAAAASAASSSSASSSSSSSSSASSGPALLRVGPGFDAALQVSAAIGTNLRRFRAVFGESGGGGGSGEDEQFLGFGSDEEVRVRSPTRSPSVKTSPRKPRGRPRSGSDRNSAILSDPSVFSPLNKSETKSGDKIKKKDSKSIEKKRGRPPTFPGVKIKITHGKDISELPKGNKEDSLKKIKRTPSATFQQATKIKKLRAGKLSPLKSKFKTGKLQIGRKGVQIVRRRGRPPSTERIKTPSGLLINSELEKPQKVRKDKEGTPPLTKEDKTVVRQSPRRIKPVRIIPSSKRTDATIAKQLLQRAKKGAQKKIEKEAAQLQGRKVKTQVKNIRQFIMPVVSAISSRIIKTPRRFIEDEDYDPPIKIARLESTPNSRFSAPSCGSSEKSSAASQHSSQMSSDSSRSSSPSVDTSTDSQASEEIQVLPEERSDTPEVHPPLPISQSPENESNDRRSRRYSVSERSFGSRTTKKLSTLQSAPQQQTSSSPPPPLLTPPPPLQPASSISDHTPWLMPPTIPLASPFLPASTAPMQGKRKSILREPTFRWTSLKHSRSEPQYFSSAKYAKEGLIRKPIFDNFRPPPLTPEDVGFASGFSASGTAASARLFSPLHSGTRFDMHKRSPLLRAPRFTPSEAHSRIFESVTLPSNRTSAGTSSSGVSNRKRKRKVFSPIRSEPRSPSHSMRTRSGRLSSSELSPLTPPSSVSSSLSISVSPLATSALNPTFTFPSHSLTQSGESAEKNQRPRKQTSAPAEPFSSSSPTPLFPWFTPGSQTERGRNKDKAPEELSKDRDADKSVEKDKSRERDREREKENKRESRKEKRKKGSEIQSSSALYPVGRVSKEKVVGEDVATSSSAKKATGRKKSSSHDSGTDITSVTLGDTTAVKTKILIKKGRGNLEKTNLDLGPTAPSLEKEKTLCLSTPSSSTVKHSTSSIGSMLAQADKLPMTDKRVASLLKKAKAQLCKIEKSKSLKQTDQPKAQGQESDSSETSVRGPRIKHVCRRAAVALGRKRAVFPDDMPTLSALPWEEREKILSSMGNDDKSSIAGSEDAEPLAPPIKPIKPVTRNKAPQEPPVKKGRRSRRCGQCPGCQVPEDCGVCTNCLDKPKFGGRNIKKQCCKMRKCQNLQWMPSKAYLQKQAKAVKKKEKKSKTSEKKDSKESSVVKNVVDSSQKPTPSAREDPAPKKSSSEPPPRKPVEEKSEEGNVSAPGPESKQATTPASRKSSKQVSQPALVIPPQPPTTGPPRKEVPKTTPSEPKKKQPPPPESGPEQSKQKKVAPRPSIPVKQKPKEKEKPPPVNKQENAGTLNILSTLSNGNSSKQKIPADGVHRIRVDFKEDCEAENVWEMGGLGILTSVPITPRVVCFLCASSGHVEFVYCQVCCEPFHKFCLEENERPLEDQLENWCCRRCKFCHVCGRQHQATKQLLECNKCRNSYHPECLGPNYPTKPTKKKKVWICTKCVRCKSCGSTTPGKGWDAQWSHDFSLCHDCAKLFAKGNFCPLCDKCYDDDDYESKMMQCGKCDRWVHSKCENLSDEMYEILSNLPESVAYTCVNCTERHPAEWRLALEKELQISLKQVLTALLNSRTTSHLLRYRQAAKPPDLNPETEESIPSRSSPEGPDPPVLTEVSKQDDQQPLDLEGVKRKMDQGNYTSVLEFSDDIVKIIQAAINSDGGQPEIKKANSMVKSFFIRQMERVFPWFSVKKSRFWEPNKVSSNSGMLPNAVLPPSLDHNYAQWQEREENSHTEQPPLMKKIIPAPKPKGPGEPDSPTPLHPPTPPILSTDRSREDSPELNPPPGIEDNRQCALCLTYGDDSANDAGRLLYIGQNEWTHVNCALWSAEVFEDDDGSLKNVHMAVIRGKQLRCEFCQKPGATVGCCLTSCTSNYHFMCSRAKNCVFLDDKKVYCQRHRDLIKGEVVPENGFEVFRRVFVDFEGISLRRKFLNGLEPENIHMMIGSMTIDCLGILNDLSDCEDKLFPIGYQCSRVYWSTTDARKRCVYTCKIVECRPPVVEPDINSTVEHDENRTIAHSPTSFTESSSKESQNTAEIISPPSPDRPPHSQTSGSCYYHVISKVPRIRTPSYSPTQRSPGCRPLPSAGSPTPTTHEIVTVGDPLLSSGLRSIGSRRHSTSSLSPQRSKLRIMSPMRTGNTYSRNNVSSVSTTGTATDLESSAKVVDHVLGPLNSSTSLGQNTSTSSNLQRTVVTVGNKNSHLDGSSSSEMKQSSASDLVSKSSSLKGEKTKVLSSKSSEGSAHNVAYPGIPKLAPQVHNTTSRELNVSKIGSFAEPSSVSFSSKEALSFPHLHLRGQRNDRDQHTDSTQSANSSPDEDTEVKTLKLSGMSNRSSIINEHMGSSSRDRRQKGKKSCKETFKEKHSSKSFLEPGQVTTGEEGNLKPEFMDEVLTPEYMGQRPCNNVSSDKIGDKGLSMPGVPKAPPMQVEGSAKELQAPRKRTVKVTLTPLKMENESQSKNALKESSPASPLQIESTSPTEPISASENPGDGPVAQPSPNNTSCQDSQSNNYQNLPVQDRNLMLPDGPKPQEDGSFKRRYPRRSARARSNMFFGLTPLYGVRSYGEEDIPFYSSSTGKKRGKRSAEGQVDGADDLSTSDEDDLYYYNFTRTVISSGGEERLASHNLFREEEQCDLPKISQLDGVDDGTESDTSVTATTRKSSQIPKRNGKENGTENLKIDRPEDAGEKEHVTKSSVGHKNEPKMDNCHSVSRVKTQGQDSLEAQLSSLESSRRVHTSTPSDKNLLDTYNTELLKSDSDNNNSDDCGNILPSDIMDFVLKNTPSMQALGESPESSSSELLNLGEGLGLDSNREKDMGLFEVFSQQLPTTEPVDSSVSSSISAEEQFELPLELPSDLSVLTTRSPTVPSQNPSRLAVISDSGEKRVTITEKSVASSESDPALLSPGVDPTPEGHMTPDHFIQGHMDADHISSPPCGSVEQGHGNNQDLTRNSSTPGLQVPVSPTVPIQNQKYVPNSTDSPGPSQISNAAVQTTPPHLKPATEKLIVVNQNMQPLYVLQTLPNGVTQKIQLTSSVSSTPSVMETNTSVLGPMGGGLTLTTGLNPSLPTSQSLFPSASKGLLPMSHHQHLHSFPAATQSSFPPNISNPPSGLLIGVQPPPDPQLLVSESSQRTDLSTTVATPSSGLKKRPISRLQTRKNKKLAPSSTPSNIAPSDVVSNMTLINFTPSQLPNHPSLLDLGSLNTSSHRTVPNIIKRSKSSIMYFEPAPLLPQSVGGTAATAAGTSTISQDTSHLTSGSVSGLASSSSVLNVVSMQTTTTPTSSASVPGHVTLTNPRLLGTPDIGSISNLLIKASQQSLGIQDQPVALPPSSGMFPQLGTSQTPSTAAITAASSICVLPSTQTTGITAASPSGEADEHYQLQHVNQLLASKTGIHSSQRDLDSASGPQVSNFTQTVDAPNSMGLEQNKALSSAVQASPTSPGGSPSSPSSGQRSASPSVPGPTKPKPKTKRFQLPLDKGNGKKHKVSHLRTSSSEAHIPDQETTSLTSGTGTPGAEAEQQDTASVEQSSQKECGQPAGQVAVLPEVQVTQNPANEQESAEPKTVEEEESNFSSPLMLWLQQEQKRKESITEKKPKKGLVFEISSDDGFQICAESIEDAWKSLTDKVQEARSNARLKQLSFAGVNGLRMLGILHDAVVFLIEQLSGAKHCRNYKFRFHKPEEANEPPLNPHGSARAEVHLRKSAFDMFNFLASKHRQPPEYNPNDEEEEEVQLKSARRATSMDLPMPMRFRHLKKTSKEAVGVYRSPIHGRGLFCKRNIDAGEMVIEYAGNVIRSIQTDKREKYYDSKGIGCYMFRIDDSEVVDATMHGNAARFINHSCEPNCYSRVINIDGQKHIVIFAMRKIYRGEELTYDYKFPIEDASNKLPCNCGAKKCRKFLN

The assay addresses Histone-lysine N-methyltransferase 2A (Homo sapiens) (UniProt Q03164). Nature of the assay: Confirmation of Inhibitors Targeting the Menin-MLL Interaction in MLL Related Leukemias: Competition With Fluorescein Labeled MLL-derived Peptide. Conditions: Fluorescence polarization, fluorescein-MLL peptide displacement from menin; at 100 µM (top of the series). (Polarisation of emitted light reports the rotation of a fluorescent probe.)

SMILES strings stand for the structures. The entries are a selection whose mix differs from that of the whole data set. Records with an inconclusive call do not appear. Calls of active or inactive are those of the source. Calls follow the shape of the dose curve; as a rule, active = well fitted inhibition curve with a large enough effect in the polarisation, with a control signal flat (not every such curve was filed as active); inconclusive = small, poorly fitted or top-dose-only effect, or effect the other way, or a change in a side signal; inactive = no such curve, though single readings can be large or run the other way; the % refers to the polarisation.
% is scaled to controls: 0 for no effect and ±100 for the full control effect.

Turning to `O=[As](O)(c1cccs1)c1cccs1`, the activity change, negative = inhibition was inactive: -10.9%.
